{
  "source": "paper PMC3357308",
  "about": "(Diabetes, 2012)",
  "origin": "cited, not measured here",
  "test_system": "11βHSD1",
  "settings": "liver, in vivo, d4-cortisol tracer; cited from earlier work",
  "data": [
    {"smiles": "C[C@]12CCC(=O)C=C1CC[C@@H]1[C@@H]2[C@@H](O)C[C@@]2(C)[C@H]1CC[C@]2(O)C(=O)CO", "note": "[cortisol]", "values": [
      {"measurement": "cortisol released by hepatic 11βHSD1", "result": "~900", "unit": "pmol/100 g tissue/min"}
    ]}
  ]
}
